Experimental data published in paper PMC10850085 (2024).

The chains behind the UniProt entries cited, without tags or fusion partners. Residues count along the entry.
UniProt P40226, 22-356: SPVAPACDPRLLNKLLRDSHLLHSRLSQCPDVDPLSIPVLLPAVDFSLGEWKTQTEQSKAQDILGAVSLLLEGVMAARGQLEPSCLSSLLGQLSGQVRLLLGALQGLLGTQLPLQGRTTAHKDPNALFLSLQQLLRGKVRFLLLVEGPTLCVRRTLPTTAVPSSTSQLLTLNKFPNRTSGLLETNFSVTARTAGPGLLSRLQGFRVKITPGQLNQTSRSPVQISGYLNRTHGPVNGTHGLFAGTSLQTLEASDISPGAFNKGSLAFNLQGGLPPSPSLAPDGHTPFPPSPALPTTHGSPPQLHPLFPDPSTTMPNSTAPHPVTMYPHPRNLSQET

Experiments:
[1] = target: T1, full-length murine Thrombopoietin (Tpo) (mouse, UniProt P40226 22-356, heavily glycosylated); assay: SPR; Tpo over immobilised TpoR
[2] = target: T1, full-length murine Thrombopoietin (Tpo); assay: SPR; TpoR over immobilised Tpo
[3] = target: T1, full-length murine Thrombopoietin (Tpo); assay: SPR; Tpo over immobilised TpoR; remark: listed apart in the source
[4] = target: T1, full-length murine Thrombopoietin (Tpo); assay: SPR; TpoR over immobilised Tpo; remark: listed apart in the source

B1: murine TpoR ectodomain, monomeric (TpoR_(1-479)) (receptor)
chain: QDVFLLALGTEPLNCFSQTFEDLTCFWDEEEAAPSGTYQLLYAYRGEKPRACPLYSQSVPTFGTRYVCQFPAQDEVRLFFPLHLWVKNVSLNQTLIQRVLFVDSVGLPAPPRVIKARGGSQPGELQIHWEAPAPEISDFLRHELRYGPTDSSNATAPSVIQLLSTETCCPTLWMPNPVPVLDQPPCVHPTASQPHGPAPFLTVKGGSCLVSGLQAGKSYWLQLRSQPDGVSLRGSWGPWSFPVTVDLPGDAVTIGLQCFTLDLKMVTCQWQQQDRTSSQGFFRHSRTRCCPTDRDPTWEKCEEEEPRPGSQPALVSRCHFKSRNDSVIHILVEVTTAQGAVHSYLGSPFWIHQAVLLPTPSLHWREVSSGRLELEWQHQSSWAAQETCYQLRYTGEGREDWKVLEPSLGARGGTLELRPRARYSLQLRARLNGPTYQGPWSAWSPPARVSTGSE
modifications: N-linked glycans at N117, N178, N349; tryptophan mannosylation (W465, W468)
[1]
  koff: 0.007 s⁻¹
[2]
  koff: 0.022 s⁻¹
[3]
  Kd: 3 nM
[4]
  Kd: 120 nM
